From US9242993B2, “Morpholino substituted bicyclic pyrimidine urea or carbamate derivatives as mTOR inhibitors” (CELLZOME LIMITED, priority 2011, dated 2016)
Read-outs that look alike come from different tables or passages of the source.

Amino acid sequences for entries named in this document (tags omitted). A change or cut given only in a name is not applied to a line headed by its entry.
UniProt O00329: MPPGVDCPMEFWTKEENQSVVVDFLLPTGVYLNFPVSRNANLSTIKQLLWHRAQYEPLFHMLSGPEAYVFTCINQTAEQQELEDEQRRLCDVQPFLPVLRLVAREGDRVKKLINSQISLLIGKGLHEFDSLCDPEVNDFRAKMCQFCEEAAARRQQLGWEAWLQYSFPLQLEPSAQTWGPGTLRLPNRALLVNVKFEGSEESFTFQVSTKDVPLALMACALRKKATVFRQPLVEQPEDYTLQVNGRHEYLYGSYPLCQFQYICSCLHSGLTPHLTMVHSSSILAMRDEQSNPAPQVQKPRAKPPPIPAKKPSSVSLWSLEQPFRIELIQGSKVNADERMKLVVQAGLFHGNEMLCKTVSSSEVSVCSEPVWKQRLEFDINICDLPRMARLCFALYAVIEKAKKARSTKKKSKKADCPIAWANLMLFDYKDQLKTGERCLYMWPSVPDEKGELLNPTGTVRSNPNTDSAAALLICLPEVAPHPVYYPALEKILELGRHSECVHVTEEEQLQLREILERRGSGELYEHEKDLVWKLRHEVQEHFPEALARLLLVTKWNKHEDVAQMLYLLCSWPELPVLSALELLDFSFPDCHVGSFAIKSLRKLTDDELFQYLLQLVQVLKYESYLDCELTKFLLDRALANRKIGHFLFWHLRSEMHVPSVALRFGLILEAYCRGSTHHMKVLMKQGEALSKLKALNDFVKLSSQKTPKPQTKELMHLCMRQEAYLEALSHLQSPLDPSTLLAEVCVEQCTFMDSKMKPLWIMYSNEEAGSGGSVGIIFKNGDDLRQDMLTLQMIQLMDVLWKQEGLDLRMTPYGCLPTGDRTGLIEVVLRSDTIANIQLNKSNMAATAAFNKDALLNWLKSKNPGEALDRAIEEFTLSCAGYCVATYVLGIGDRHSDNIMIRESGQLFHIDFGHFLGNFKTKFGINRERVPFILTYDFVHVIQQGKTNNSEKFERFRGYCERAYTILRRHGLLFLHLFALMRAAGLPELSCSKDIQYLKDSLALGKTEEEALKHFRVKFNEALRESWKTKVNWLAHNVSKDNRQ
UniProt P48736: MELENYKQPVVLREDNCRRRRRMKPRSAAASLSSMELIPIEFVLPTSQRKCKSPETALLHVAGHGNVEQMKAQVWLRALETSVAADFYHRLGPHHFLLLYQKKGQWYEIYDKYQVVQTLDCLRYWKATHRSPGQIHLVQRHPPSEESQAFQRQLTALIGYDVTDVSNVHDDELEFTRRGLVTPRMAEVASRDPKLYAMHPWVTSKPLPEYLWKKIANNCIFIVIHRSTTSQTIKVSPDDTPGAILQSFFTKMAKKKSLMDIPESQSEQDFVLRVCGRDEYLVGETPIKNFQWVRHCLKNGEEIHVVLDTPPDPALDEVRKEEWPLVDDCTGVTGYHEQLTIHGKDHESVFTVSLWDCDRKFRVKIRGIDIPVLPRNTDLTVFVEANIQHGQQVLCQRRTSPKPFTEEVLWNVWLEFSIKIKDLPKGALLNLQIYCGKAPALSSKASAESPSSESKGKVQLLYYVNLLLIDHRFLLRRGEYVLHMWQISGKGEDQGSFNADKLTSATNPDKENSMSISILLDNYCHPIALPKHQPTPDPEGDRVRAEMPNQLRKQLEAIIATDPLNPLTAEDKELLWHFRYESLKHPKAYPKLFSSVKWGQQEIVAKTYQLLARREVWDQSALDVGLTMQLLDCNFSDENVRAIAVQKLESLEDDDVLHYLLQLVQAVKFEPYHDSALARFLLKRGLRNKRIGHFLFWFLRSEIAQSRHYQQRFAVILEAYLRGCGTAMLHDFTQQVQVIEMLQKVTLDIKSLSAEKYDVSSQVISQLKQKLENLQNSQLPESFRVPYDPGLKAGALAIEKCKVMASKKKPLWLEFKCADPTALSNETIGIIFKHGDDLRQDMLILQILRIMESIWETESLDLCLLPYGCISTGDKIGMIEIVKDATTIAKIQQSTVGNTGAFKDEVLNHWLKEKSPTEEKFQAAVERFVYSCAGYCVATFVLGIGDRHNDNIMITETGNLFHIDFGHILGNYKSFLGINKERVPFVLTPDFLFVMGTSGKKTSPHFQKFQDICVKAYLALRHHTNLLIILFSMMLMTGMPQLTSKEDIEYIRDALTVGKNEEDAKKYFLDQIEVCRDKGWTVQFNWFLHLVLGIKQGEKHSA
UniProt P42336, whole entry: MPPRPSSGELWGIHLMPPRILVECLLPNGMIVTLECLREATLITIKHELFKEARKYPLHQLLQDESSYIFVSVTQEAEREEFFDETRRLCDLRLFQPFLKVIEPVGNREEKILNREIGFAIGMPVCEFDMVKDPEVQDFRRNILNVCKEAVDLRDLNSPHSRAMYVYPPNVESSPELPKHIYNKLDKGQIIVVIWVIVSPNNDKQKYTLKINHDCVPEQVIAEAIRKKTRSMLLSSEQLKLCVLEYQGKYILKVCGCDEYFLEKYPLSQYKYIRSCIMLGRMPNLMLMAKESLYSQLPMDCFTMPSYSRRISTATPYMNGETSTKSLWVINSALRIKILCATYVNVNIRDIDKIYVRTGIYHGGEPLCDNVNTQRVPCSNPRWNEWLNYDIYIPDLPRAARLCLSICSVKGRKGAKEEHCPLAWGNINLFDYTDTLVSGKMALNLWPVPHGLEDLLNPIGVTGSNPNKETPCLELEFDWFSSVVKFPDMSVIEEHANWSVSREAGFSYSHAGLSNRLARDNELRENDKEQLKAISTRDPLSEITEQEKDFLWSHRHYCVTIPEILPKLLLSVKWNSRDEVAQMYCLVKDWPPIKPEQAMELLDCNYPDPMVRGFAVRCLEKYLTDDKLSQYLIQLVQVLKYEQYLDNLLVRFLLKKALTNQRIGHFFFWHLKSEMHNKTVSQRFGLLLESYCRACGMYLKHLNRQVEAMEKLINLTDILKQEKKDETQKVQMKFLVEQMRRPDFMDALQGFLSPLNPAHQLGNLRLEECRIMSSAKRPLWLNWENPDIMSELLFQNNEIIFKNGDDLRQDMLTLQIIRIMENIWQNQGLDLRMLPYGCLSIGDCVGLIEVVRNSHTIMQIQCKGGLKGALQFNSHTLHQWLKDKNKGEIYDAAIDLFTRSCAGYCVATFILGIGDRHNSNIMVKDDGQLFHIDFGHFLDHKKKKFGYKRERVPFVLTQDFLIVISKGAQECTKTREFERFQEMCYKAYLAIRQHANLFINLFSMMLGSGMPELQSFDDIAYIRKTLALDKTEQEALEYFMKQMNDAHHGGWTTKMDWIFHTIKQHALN
UniProt P42338: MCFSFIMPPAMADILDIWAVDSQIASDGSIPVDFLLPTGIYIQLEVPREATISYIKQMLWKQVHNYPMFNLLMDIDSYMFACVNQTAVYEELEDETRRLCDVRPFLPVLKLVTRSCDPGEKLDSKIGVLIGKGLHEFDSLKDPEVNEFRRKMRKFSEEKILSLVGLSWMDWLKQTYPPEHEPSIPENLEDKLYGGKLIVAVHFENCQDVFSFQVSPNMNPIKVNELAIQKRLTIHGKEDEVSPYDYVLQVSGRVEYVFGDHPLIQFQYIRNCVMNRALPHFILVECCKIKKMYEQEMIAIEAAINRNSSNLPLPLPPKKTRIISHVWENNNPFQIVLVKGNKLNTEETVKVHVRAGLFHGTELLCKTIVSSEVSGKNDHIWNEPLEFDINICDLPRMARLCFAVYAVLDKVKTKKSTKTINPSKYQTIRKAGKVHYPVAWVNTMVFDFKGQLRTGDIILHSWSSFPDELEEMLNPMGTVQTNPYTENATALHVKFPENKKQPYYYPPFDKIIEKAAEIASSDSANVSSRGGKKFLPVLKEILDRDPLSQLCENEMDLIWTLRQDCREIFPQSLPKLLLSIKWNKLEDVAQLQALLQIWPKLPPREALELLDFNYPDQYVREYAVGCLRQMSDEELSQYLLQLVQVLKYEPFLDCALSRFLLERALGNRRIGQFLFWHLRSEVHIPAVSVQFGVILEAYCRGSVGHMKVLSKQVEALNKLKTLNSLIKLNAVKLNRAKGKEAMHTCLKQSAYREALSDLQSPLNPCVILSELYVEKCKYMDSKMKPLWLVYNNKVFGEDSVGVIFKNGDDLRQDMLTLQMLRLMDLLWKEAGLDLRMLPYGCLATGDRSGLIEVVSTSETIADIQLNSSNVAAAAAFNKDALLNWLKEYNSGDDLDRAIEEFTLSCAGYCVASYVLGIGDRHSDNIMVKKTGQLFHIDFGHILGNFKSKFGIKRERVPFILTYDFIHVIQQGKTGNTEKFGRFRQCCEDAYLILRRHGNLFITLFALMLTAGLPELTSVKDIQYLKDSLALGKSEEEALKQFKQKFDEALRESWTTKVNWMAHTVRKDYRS

Experiments:
Format in all cases: binding
[1] = target: PI3K delta (PI3 Kd) (Homo sapiens, UniProt O00329); assay: kinobeads assay, PI3K delta; conditions: Jurkat cell lysate
[2] = target: PI3K gamma (PI3 Kg) (Homo sapiens, UniProt P48736); assay: kinobeads assay, PI3K gamma; conditions: Jurkat cell lysate
[3] = target: PI3K alpha (PI3Ka) (Homo sapiens, UniProt P42336); assay: kinobeads assay, PI3K alpha; conditions: Jurkat cell lysate, read-out: PI3Ka inhibition value (IC50), activity level
[4] = target: PI3K beta (PI3 Kb) (Homo sapiens, UniProt P42338); assay: kinobeads assay, PI3K beta; conditions: Jurkat cell lysate
[5] = read-out: PI3Kd inhibition value (IC50), activity level
[6] = read-out: PI3Kg inhibition value (IC50), activity level
[7] = read-out: PI3Kb inhibition value (IC50), activity level

## O=C(Nc1ccc(-c2nc3c(c(N4CCOCC4)n2)CS(=O)(=O)C3)cc1)NC1CC1 [Example 18, 1-cyclopropyl-3-(4-(4-morpholino-6,6-dioxido-5,7-dihydrothieno[3,4-d]pyrimidin-2-yl)phenyl)urea]
[1]; [5]
  IC50: > 10 µM
[2]; [6]
  IC50: > 10 µM
[3]
  IC50: > 10 µM
[4]; [7]
  IC50: > 10 µM

## CCNC(=O)Nc1ccc(-c2nc(N3C4CCC3COC4)c3c(n2)C(C)(C)S(=O)(=O)C3)cc1 [Example 60, 1-(4-(4-(3-oxa-8-azabicyclo[3.2.1]octan-8-yl)-7,7-dimethyl-6,6-dioxido-5,7-dihydrothieno[3,4-d]pyrimidin-2-yl)phenyl)-3-ethylurea]
[1]; [5]
  IC50: > 10 µM
[2]; [6]
  IC50: > 10 µM
[3]
  IC50: > 10 µM
[4]; [7]
  IC50: > 10 µM

## C[C@H]1COCCN1c1nc(-c2ccc(NC(=O)NC3CC3)cc2)nc2c1CS(=O)(=O)C2 [Example 2, (S)-1-cyclopropyl-3-(4-(4-(3-methylmorpholino)-6,6-dioxido-5,7-dihydrothieno[3,4-d]pyrimidin-2-yl)phenyl)urea]
[1]; [5]
  IC50: > 10 µM
[2]; [6]
  IC50: > 10 µM
[3]
  IC50: > 10 µM
[4]; [7]
  IC50: > 10 µM

## CNC(=O)Nc1ccc(-c2nc3c(c(N4CCOC[C@@H]4C)n2)CS(=O)(=O)C3)cc1 [Example 12, (S)-1-methyl-3-(4-(4-(3-methylmorpholino)-6,6-dioxido-5,7-dihydrothieno[3,4-d]pyrimidin-2-yl)phenyl)urea]
[1]; [5]
  IC50: > 10 µM
[2]; [6]
  IC50: > 10 µM
[3]
  IC50: 1 to 10 µM
[4]; [7]
  IC50: > 10 µM

## CCNC(=O)Nc1ccc(-c2nc3c(c(N4CCOC[C@@H]4C)n2)C(C)S(=O)(=O)C3)cc1F (stereo partly drawn) [Example 50, 1-ethyl-3-(2-fluoro-4-(5-methyl-4-((S)-3-methylmorpholino)-6,6-dioxido-5,7-dihydrothieno[3,4-d]pyrimidin-2-yl)phenyl)urea]
[1]; [5]
  IC50: > 10 µM
[2]; [6]
  IC50: > 10 µM
[3]
  IC50: > 10 µM
[4]; [7]
  IC50: > 10 µM

## CCNC(=O)Nc1ccc(-c2nc(N3CCOC[C@H]3C)c3c(n2)C(C)(C)S(=O)(=O)C3)cc1 [Example 55, (R)-1-(4-(7,7-dimethyl-4-(3-methylmorpholino)-6,6-dioxido-5,7-dihydrothieno[3,4-d]pyrimidin-2-yl)phenyl)-3-ethylurea]
[1]; [5]
  IC50: > 10 µM
[2]; [6]
  IC50: > 10 µM
[3]
  IC50: 1 to 10 µM
[4]; [7]
  IC50: > 10 µM

## CCNC(=O)Nc1ccc(-c2nc3c(c(N4CCOC[C@@H]4C)n2)C(C)S(=O)(=O)C3)cc1 (stereo partly drawn) [Example 38, 1-ethyl-3-(4-(5-methyl-4-((S)-3-methylmorpholino)-6,6-dioxido-5,7-dihydrothieno[3,4-d]pyrimidin-2-yl)phenyl)urea]
[1]; [5]
  IC50: > 10 µM
[2]; [6]
  IC50: > 10 µM
[3]
  IC50: 1 to 10 µM
[4]; [7]
  IC50: > 10 µM

## C[C@H]1COCCN1c1nc(-c2ccc(NC(=O)NC3CC3)cc2)nc2c1CS(=O)(=O)C(C)(C)C2 [Example 70, (S)-1-cyclopropyl-3-(4-(7,7-dimethyl-4-(3-methylmorpholino)-6,6-dioxido-7,8-dihydro-5H-thiopyrano[4,3-d]pyrimidin-2-yl)phenyl)urea]
[1]; [5]
  IC50: > 10 µM
[2]; [6]
  IC50: > 10 µM
[3]
  IC50: > 10 µM
[4]; [7]
  IC50: > 10 µM

## CNC(=O)Nc1ccc(-c2nc(N3CCOC[C@@H]3C)c3c(n2)C(C)(C)S(=O)(=O)C3)c(F)c1 [Example 66, (S)-1-(4-(7,7-dimethyl-4-(3-methylmorpholino)-6,6-dioxido-5,7-dihydrothieno[3,4-d]pyrimidin-2-yl)-3-fluorophenyl)-3-methylurea]
[1]; [5]
  IC50: > 10 µM
[2]; [6]
  IC50: > 10 µM
[3]
  IC50: > 10 µM
[4]; [7]
  IC50: > 10 µM

## C[C@H]1COCCN1c1nc(-c2ccc(NC(=O)NC3CC3)cc2)nc2c1[C@H](C)S(=O)(=O)C2 (single isomer, unassigned) [Example 10]
[1]; read-out: PI3Kd inhibition value (IC50), numeric bound
  IC50: > 3 µM
[2]; read-out: PI3Kg inhibition value (IC50), numeric bound
  IC50: > 3 µM
[3]
  IC50: > 10 µM
[4]; read-out: PI3Kb inhibition value (IC50), numeric bound
  IC50: > 3 µM
